Most compounds without a hit are left out; they make up all but 1.2% or so of the library.
Cneo AK release: Cryptococcus neoformans cell lysis inducers, primary screen, AK release luminescence, single concentration; 360,000 compounds, 0.2% hits; C. neoformans lysis, adenylate kinase release luminescence, 4 h; normalised: neutral wells 0, clomiphene wells 100; lysis activity, % at 15 µM;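 active = mean lysis activity across replicates of at least 80%, whatever share of replicates individually reach that level; inactive = mean lysis activity below 80%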
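Material: C. neoformans cells | Amount: Yeast cell density of 5 × 10^6 cells/mL | Medium: Fresh YPD growth medium | Dosing: Single dose | Times: Static 4 h at 37 °C with compound, 1 h detection | Detection: AK luminescence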
miR-122 sensor: miR-122 Renilla sensor signal increase in Huh7, primary screen, miR-122 inhibitor project, cell-based, single point, plate reader; Huh7 miR-122 Renilla luciferase sensor, 48 h; neutral wells = 0, positive control = 100; 340,000 compounds, 0.3% hits; AID 602342, 2012; activation (reporter increase), % at 12.5 µM;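 active = mean replicate activation score at least 90 and every replicate individually at or above 90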;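 also: higher luciferase means less miR-122 activity so hits act as miR-122 inhibitors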
Yeast UUG start: alters start codon recognition fidelity in yeast. S. cerevisiae UUG-firefly luciferase reporter, luminescence/redox ratio. AID 602363. activity score, % at 18.7 µM. hit rate 0.13% among 350,000;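 active = replicate mean at a twofold rise or more, about +100% in these data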;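 note: firefly luciferase made from a UUG start codon reports start codon fidelity; reporter light over untreated wells divided by growth signal over untreated wells; some hits fall short of that in this replicate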
C2C12 statin: suppressors of statin myotoxicity in C2C12 myotubes, primary screen, cell-based, single point, plate reader. C2C12 myotubes + simvastatin, ATP luminescence, 48 h; scaled: DMSO 0, geranylgeraniol control 100. rescue of ATP level, % at 7.49 µM. 330,000 compounds, 0.78% hits. AID 602340, 2012;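 active = mean ATP rescue above about 67%, or every replicate alone reaching that limit, limit read from the data, passing the limit was not always enough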;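 also: myotubes were challenged with 10 µM simvastatin during compound exposure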
Numbers without * were called inactive; . = no result given; [ ] = dose if it differs, or a comment.

SMILES	Cneo AK release	miR-122 sensor	Yeast UUG start	C2C12 statin
COc1cccc(-c2ccc3c(c2)[C@@H]2[C@@H](CCN2C(=O)Nc2ccccc2OC)[C@@H](CO)N3C)c1	4	-6[16.7 µM]	-15	20
CCC(=O)N1[C@@H]2c3cccc(=O)n3C[C@H]1[C@H](CO)[C@H]2C(=O)NC1CCCCC1	1	1[16.7 µM]	-12	25
CC(=O)Nc1cc(-c2nn(C)c(=O)c3ccccc23)ccc1N1CCOCC1	-1	-2	-9	106*
COc1ccc(-n2c(SCC(=O)N3CCCCC3)nc(O)cc2=O)cc1	0	-3	-4	120*
COc1ccc(C(=O)N2CCN(C(=O)c3ccco3)CC2)cc1OC	-2	.	8	6
COc1ccc(C(=O)OCC(=O)N2CCN(C(=O)c3ccco3)CC2)cc1OC	1	-8	-5	88*
COC(=O)[C@@]1(Cc2ccccc2)N=C(c2ccc(OCCCO)cc2)O[C@H]1c1ccccc1	-5	.	7	.
CCN(c1ccccc1)S(=O)(=O)c1cnc[nH]1	0	-2	-19	88*
C=CC(=O)N1C/C(=C/c2ccccc2)C(=O)/C(=C\c2ccccc2)C1	.	-20	.	.
CN1C2CCC1/C(=C\c1ccccc1)C(=O)/C2=C\c1ccccc1	2	-4	-4	67*
CCCN(C)C[C@H]1OCCCC[C@@H](C)Oc2ccc(NC(=O)Nc3ccc(C(F)(F)F)cc3)cc2C(=O)N([C@H](C)CO)C[C@H]1C	0	-13[16.7 µM]	14	.
C[C@H](CO)N1C[C@H](C)[C@@H](CN(C)S(=O)(=O)c2ccc(F)cc2)Oc2ccc(NS(=O)(=O)c3ccc(F)cc3)cc2CC1=O	-5	7[16.7 µM]	3	32
Cc1ccc(S(=O)(=O)N(C)C[C@@H]2Oc3ccc(NS(=O)(=O)c4ccc(Cl)cc4)cc3CC(=O)N([C@@H](C)CO)C[C@@H]2C)cc1	100*	-3[16.7 µM]	29	4
C[C@@H]1CN([C@H](C)CO)C(=O)Cc2cc(NS(=O)(=O)c3ccc(F)cc3)ccc2O[C@H]1CN(C)CC1CCCCC1	44	5[16.7 µM]	25	108*
COc1ccc(S(=O)(=O)N(C)C[C@@H]2Oc3ccc(NS(=O)(=O)c4ccc(Cl)cc4)cc3CC(=O)N([C@H](C)CO)C[C@@H]2C)cc1	1	1[16.7 µM]	-9	21
C[C@H](CO)N1C[C@H](C)[C@H](CN(C)CC2CCCCC2)Oc2ccc(NS(=O)(=O)c3ccc(F)cc3)cc2CC1=O	4	-6[16.7 µM]	19	-16
COc1ccc(S(=O)(=O)N(C)C[C@@H]2Oc3ccc(NS(=O)(=O)c4ccc(Cl)cc4)cc3CC(=O)N([C@@H](C)CO)C[C@H]2C)cc1	15	-8[16.7 µM]	-9	73*
C[C@H]1CN([C@@H](C)CO)C(=O)Cc2cc(NS(=O)(=O)c3ccc(F)cc3)ccc2O[C@H]1CN(C)S(=O)(=O)c1ccc(F)cc1	100*	24[16.7 µM]	24	-17
CNC(=O)C[C@H]1CC[C@@H]2[C@H](COc3ccc(NC(=O)Nc4ccc(F)cc4)cc3C(=O)N2C)O1	-2	-5[16.7 µM]	11	-3
Cc1ccc(S(=O)(=O)Nc2ccc3c(c2)CC(=O)N([C@H](C)CO)C[C@H](C)[C@H](CN(C)Cc2ccc(C(=O)Nc4ccccc4N)cc2)O3)cc1	10	229*[16.7 µM]	6	-14
Cc1ccc(S(=O)(=O)Nc2ccc3c(c2)CC(=O)N([C@@H](C)CO)C[C@@H](C)[C@H](CN(C)Cc2ccc(C(=O)Nc4ccccc4N)cc2)O3)cc1	10	26[16.7 µM]	10	-32
C[C@H]1CN([C@@H](C)CO)C(=O)Cc2cc(NS(=O)(=O)c3ccc(F)cc3)ccc2O[C@H]1CN(C)Cc1ccc(C(=O)Nc2ccccc2N)cc1	-2	114*[16.7 µM]	8	35
CC(=O)N(C)C[C@@H]1Oc2ncc(-c3ccccc3C)cc2C(=O)N([C@H](C)CO)C[C@@H]1C	2	17[16.7 µM]	-15	7
COc1ccc(C#Cc2ccc3c(c2)O[C@H](CN(C)S(=O)(=O)c2ccccc2F)[C@@H](C)CN([C@@H](C)CO)S3(=O)=O)cc1	-7	6[16.7 µM]	-14	14
c1ccc(-c2cc(N3CCCCC3)ncn2)cc1	-1	1	-23	.

The closing 5 compounds of the part above lead into the next.
SMILES	Cneo AK release	miR-122 sensor	Yeast UUG start	C2C12 statin
Cc1ccc(S(=O)(=O)Nc2ccc3c(c2)CC(=O)N([C@@H](C)CO)C[C@@H](C)[C@H](CN(C)Cc2ccc(C(=O)Nc4ccccc4N)cc2)O3)cc1	10	26[16.7 µM]	10	-32
C[C@H]1CN([C@@H](C)CO)C(=O)Cc2cc(NS(=O)(=O)c3ccc(F)cc3)ccc2O[C@H]1CN(C)Cc1ccc(C(=O)Nc2ccccc2N)cc1	-2	114*[16.7 µM]	8	35
CC(=O)N(C)C[C@@H]1Oc2ncc(-c3ccccc3C)cc2C(=O)N([C@H](C)CO)C[C@@H]1C	2	17[16.7 µM]	-15	7
COc1ccc(C#Cc2ccc3c(c2)O[C@H](CN(C)S(=O)(=O)c2ccccc2F)[C@@H](C)CN([C@@H](C)CO)S3(=O)=O)cc1	-7	6[16.7 µM]	-14	14
c1ccc(-c2cc(N3CCCCC3)ncn2)cc1	-1	1	-23	.
c1ccc(-c2cc(N3CCCCCC3)n[nH]2)cc1	2	1	2	93*
Cc1cc(C)c(C#N)c(N2CCCC(C(N)=O)C2)n1 (centres undefined)	1	-16	2	170*
CCOC(=O)c1c(NC(=O)Cc2cccs2)sc(C(=O)NC2CCCCC2)c1C	-4	-2	-5	78*
CN(C)Cc1csc(NC(=O)Nc2ccccc2Oc2ccccc2)n1	-2	-3	-25	73*
COC(=O)c1cc(S(=O)(=O)NCCc2ccccc2)c[nH]1	-1	18	-5	120*
COC(=O)c1cc(S(=O)(=O)NCC(C)c2ccccc2)c[nH]1 (centres undefined)	1	6	2	-4
ClC(Br)=C(n1cnc2ccccc21)n1cnc2ccccc21	3	-6	-15	90*
C[C@H](O)C#Cc1cnc2c(c1)C(=O)N([C@@H](C)CO)C[C@H](C)[C@H](CN(C)C(=O)c1ccc(F)cc1)O2	-15	.	0	-3
Cn1nnc(NC(=O)CSc2nnnn2-c2ccc(F)cc2)n1	0	0	-9	-18
Cn1nnc(NC(=O)CSc2ccc(Cl)cc2)n1	1	-3	-31	98*
CCC(C)(C)NC(=O)CN(Cc1cccs1)C(=O)CNS(=O)(=O)c1ccc(C)cc1	6	-4	-12	83*
CC(C)C[C@@H](CO)N(Cc1ccccc1)S(=O)(=O)N(Cc1ccccc1)[C@H](CO)CC(C)C	0	16	0	126*
COc1ccc2c(c1OC)C(=O)N(c1ccccn1)C2	-3	7	-16	101*
C[C@@H]1CN([C@H](C)CO)C(=O)c2cccc(NS(=O)(=O)c3cccs3)c2O[C@H]1CN(C)C(=O)Nc1ccc(C(F)(F)F)cc1	-1	2[16.7 µM]	16	73*
C[C@H](CO)N1C[C@H](C)[C@H](CN(C)C(=O)Nc2ccc(C(F)(F)F)cc2)Oc2c(NS(=O)(=O)c3cccs3)cccc2C1=O	-4	5[16.7 µM]	8	11
C[C@@H]1CN([C@@H](C)CO)C(=O)c2cccc(NS(=O)(=O)c3cccs3)c2O[C@@H]1CN(C)C(=O)Nc1ccc(C(F)(F)F)cc1	-4	8[16.7 µM]	-3	96*
C[C@@H]1CN([C@@H](C)CO)C(=O)c2cccc(NS(=O)(=O)c3cccs3)c2O[C@H]1CN(C)C(=O)Nc1ccc(C(F)(F)F)cc1	56	0[16.7 µM]	37	22
CCNC(=O)C[C@H]1CC[C@H]2[C@@H](COC[C@@H](O)CN2C(=O)Nc2ccc3c(c2)OCO3)O1	-5	4[16.7 µM]	2	-13
CC(C)COc1nc2ccccc2c(=O)n1OCC(=O)O	1	1	-8	116*

Compound activity deposited in PubChem by Broad Institute.
